The values that follow come from ChEMBL document CHEMBL1123735 (J Med Chem, 1987).

The species entered for experiment [1] is Cavia porcellus. Description: (§1) Antimuscarinic activity was assayed for its ability to block the acetyl-choline induced contraction of the guinea pig ileum.
The species named for experiment [2] is Cavia porcellus. Described as §1. In kind it is functional.

Each structure is given as a SMILES string.

One may read the pA2 as a measure of antagonist potency on a negative log scale. Low values mean a weaker antagonist, high ones a more potent antagonist. The compound `CCN(CC)CCOC(=O)C(O)(c1ccccc1)c1ccccc1` [BENACTYZINE] yielded a Kb in the experiment filed under Cavia porcellus [1] of 6.5 nM. Moreover, in the experiment filed under Cavia porcellus [2], the pA2 is 8.2.
